The target of this experiment is human growth hormone secretagogue receptor (hGHS-R1a) (human) (UniProt Q92847). The experiment can be described thus: cell-based or functional assay.

Amino acid sequences for entries named in this document (tags omitted).
UniProt Q92847, whole entry: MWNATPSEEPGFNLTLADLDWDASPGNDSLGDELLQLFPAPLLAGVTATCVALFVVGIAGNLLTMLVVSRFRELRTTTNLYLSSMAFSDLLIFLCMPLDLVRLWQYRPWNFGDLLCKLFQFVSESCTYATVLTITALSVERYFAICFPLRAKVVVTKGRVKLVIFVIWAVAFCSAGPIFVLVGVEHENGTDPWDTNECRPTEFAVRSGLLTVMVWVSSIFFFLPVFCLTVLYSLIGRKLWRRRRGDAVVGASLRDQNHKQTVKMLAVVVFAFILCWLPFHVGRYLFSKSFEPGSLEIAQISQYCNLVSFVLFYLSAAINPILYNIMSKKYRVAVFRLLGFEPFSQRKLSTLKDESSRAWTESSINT

Here are results for 1 substance from US8450268.

The substance “Ghrelin (Bachem, #H-4864) (from UniProt Q9UBU3 24-51) (peptide)” had an EC80 (aequorin luminescence, CHO-K1 cells with human ghrelin receptor) of 3.7 nM.
